Test results as given in US7648977B2, “Pharmaceutical composition having a ruthenium oxalato compound and method of using the same” (The University of Hong Kong, priority 2005, dated 2010).

Tests used:
[1] = system: Hut/CCR5 cells; details: host cells (Hut/CCR5, GHOST/CXCR4, PBMC), MTT assay

Na7[Ru4(μ3-O)4(C2O4)6] [Complex 2]
stability in physiological medium (UV-vis spectra) (2 mM GSH aqueous solution, 7 days): stable | stability in H2O (UV-vis spectra) (H2O, standing for 7 days): stable | cytotoxicity to the host cells [1]: low cytotoxicity
